# Legend:
# By UniProt entry, the sequences of proteins in these tests, tags left out. Residues count along the entry.
# UniProt P01116, 1-188 isoform 2 G12D: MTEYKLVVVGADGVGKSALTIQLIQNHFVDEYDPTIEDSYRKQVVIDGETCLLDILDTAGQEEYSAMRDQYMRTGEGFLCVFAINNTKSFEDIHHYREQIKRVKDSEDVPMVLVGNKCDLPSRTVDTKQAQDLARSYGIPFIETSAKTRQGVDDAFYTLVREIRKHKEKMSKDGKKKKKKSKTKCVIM
# KRAS(G12D)/SOS1 = KRAS(G12D)/SOS1 (Homo sapiens, UniProt P01116, G12D); assay: KRAS(G12D)/SOS1 Homogeneous Time-Resolved Fluorescence (HTRF) Assay; details: read-out: HTRF of KRAS G12D-SOS1 IC50; absence of GTP, 4° C., 3 hr; tested form: formate
# AGS = assay: CellTiter-Glo Reagent cancer cell line proliferation assay, AGS; details: read-out: AGS proliferation IC50, KRAS(G12D) heterozygous, 24 hr, tested form: formate
# ASPC-1 = assay: CellTiter-Glo Reagent cancer cell line proliferation assay, ASPC-1; details: read-out: ASPC-1 proliferation IC50; ASPC-1, KRAS(G12D) homozygous, 24 hr; tested form: formate
# A427 = assay: CellTiter-Glo Reagent cancer cell line proliferation assay, A427; details: read-out: A427 proliferation IC50; A427, KRAS(G12D) heterozygous, 24 hr; tested form: formate
# SW1990 = assay: CellTiter-Glo Reagent cancer cell line proliferation assay, SW1990; details: read-out: SW1990 proliferation IC50; SW1990, KRAS(G12D) homozygous, 24 hr; tested form: formate
compound,measurement,setting,value
CN1C[C@H](N2CCN(CC3CCN(c4ccc5c(c4)CN(C4CCC(=O)NC4=O)C5=O)CC3)CC2)C[C@@H]1COc1nc(N2CC3CCC(C2)N3)c2cnc(-c3cc(O)cc4ccccc34)c(F)c2n1 (some centres unmarked),IC50,KRAS(G12D)/SOS1,< 0.1 µM
same,IC50,AGS,> 1 µM
same,IC50,ASPC-1,> 1 µM
same,IC50,A427,> 1 µM
same,IC50,SW1990,> 1 µM

# Source: patent US20260325654A1, “METHODS AND COMPOSITIONS FOR TARGETED PROTEIN DEGRADATION” (Ranok Therapeutics (Hangzhou) Co. Ltd., priority 2023, published 2026)
